## Yeast mating assay B: variants of the scFv Ab-14

The target is the same throughout: PDVDLGDISGINAS, from the HR2 region of SARS-CoV-2 spike.

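This is the validation round: designs drawn from the data on random variants, tested in the same kind of assay. Several design methods are mixed in this list. Affinity was read by AlphaSeq, a pooled yeast mating assay with surface-displayed partners. After mating in shaken culture at 30 °C for 16 h, diploids were selected and their barcode pairs sequenced. Scores were corrected for input abundance and mapped to Kd with protein pairs of known affinity run in the same pool. The assay was run in six technical replicates.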

Parent scFv Ab-14: VH joined to VL by a (GGGGS)3 linker. Changes lie in the light chain CDRs alone.
VH: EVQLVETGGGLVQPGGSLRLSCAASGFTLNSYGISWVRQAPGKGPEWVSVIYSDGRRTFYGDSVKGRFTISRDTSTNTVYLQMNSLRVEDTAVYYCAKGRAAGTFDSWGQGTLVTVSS
VL: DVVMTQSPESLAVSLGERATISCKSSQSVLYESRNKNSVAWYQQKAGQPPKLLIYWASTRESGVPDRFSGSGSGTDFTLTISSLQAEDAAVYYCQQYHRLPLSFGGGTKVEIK

Each variant is given by its three light chain CDRs, as the data file delimits them; those of the parent are KSSQSVLYESRNKNSVA, WASTRES, QQYHRLPLS.
Kd is apparent (estimated from mating counts) and averaged on the log scale over replicates with a signal. Smaller is tighter.
"no signal" means that the variant was in the library but no mating with the target was seen in any replicate; the authors take this as a sign of poor binding, and no number exists.
The parent sequence was in this pool as ten entries: three were never detected, three once, and four in most replicates, with averages from 2.2 nM to 240 nM.
Three control strains display no target. For all light chain designs, 4% of the pairings with them gave a signal, with a median of 430 nM and one signal in twenty below 38 nM, so weak values seen in few replicates may be background.
The authors' rule: three or more of the six replicates give a measured affinity, fewer mean a poor binder.
The range of this assay differs from that of the first round, and the authors advise against merging the two.

| CDR-L1 | CDR-L2 | CDR-L3 | Kd (apparent) | detected |
|---|---|---|---|---|
| KFSQSVLMESRNANSVA | DASTRES | QQYHRLPLS | 500 pM | 6/6 |
| KLQQSVGYESRNKNSVA | NASTRLS | QQYHRLPLS | 2.2 nM | 6/6 |
| RLTEHTSERAYADASVA | NASTRND | QQYHRLPLE | 10 nM | 6/6 |
| HSSPSVEYESRNKNSVA | NASSRES | QQYHRLPLS | 3.9 nM | 6/6 |
| MLSQMTGLGQKVRNSVA | QASMRFN | QQYFRLPLI | 500 nM | 3/6 |
| KSSRSVLTESRFKYSVA | WASTRES | QQYHRLPLS | no signal | 0/6 |
| MISQVMGLNNMYKYSVA | QAETRLN | QQYDHLPLS | 220 nM | 6/6 |
| KFSQSVLYESRNKNSVA | WASARES | QQYHYLPLS | 16 nM | 5/6 |
| NMTLQVRNGENNKYNIA | AEMKRVY | QQYQRLPLM | 20 nM | 6/6 |
| KNSFSDLYESENKNSVA | WASTRES | QQYHRLPLS | 9.9 nM | 6/6 |
| KISQSQLGESRNVNSVA | NASTRES | QQYHRLPLS | 350 pM | 6/6 |
| KISQLNLYESRNKNSVA | NANTRES | QQYHRLPLS | 2.0 nM | 6/6 |
| KVSQSVLYESRCKNSVA | DASTRCS | QQYHRLPLS | 2.1 nM | 6/6 |
| TISMHTSLFSQTINNVA | EVSTREN | QQYDRLPLA | 6.3 nM | 6/6 |
| KSLQSGLYESRNKNSVA | HASTRED | QLYHRLPLS | 2.7 nM | 6/6 |
| KFSQSVLYEDRNKNSVA | NASQRMS | QQYHRLPLS | 360 pM | 6/6 |
| IIDQIMYWGISLKNSIA | QASERLN | QQYHHLPLF | 62 nM | 4/6 |
| ASSQSVLEESWNKNSVA | WASTREV | QQYHRLPLS | 26 nM | 6/6 |
| TISTSMRYESSLKNAIA | NAQTRED | QQYHRLPLS | 1.6 nM | 6/6 |
| RLLDWAYNLTAKDSNIA | DQDIAGS | QQYSHLPLA | 1.4 µM | 4/6 |
| KLQQSVPYESRNKNSVA | NASTREQ | QQYHRLPLS | 2.8 nM | 6/6 |
| KVPQSWLYESRMKQSVA | NASERES | QQYHRLPLS | 1.9 nM | 6/6 |
| KQQQEWEGQSRNKNSVA | HASKRES | QQYHRLPLS | 1.2 µM | 1/6 |
| KSDQGVLYESRNKNSVA | GASQRIS | QQYHRLPLS | 1.3 nM | 6/6 |
| KSSQSVLYESENKNSVA | WVSTRES | QTYHRLPLS | 660 nM | 1/6 |
| KVYSGINFESTAKNNIA | EEVMRTK | QQYARLPLS | 2.9 nM | 6/6 |
| TISQLMNMGQFAINSVA | QASLRNE | QQYDRLPLA | 16 nM | 6/6 |
| KSSYSVLYESRNGNSVA | WASTRES | QQYHRLPLK | 310 nM | 1/6 |
| RIDAYPPMQGNNIDSIA | ENAITLD | QQYAQLPLS | 290 nM | 1/6 |
| KVSPSMLYESRNKNSVA | DASTRES | QQYHRLPLS | 310 pM | 6/6 |
| KLYQATAMTSRMRNNVA | DLNERER | QQYFRLPLS | 160 nM | 2/6 |
| VFSGQWDLNTTENSAVA | NVDERML | QQYNRLPLM | 21 nM | 5/6 |
| KWSQSVLYEHRNKNSVA | WASTRES | QQYHRLPLS | 150 nM | 3/6 |
| RLMGLDVTEKNDQSAIA | NQQTHLT | QQYERLPLI | 13 nM | 5/6 |
| KSSQSVPYESRNKNSVA | NASTRMS | QQYHRLPLS | 3.6 nM | 6/6 |

Second part, the sequence after the result:

| Kd (apparent) | detected | CDR-L1 | CDR-L2 | CDR-L3 |
|---|---|---|---|---|
| 2.5 nM | 6/6 | KISQMQRVGSTHGNSIA | EEATRLN | QQYHRLPLS |
| 2.4 nM | 6/6 | KLSFLGLYEQRNCNSVA | SASTRCS | QQYHRLPLS |
| 860 pM | 6/6 | KLDQSELYESRNKNSVA | NASTRES | QQYHRLPLS |
| 15 nM | 6/6 | IIAENSDDITEKQNSIA | ETSQVTS | QQYHLLPLA |
| 970 pM | 6/6 | HQSQSVLYESRNKNSVA | DASTRES | QQYHRLPLS |
| 990 pM | 6/6 | TIAQAMDHLQRNRNNVA | DTNCRED | QDYNRLPLS |
| 2.3 nM | 6/6 | HIDWYNRGETLKKDDIA | NATHREQ | QQYFHLPLI |
| 8.3 nM | 6/6 | QISQVMGLSMHGTNNVA | QMETREE | QQYDRLPLS |
| 99 nM | 6/6 | YMSMYLDMQDSIQCGVA | DATVRNA | QQYQRLPLS |
| 6.9 nM | 6/6 | KIELDLTRYNAGYAAIA | HETQKAQ | QQYSRLPLV |
| 42 nM | 5/6 | MIEEDNAGEQKNSSNIA | SQDQKED | QQYQRLPLI |
| 4.5 nM | 6/6 | MISDLTMYGSRLKNSVA | DLSTRGS | QQYHRLPLS |
| 1.0 nM | 6/6 | KLSQSWLYESRNWNSVA | NASQRES | QQYHRLPLS |
| 5.9 nM | 6/6 | TLYMGPTEARKDKHNIA | GMSEREE | QQYHLLPLV |
| 760 pM | 6/6 | RFDMAMPYAHSNINSIA | DKAIQAD | QQYNRLPLS |
| 2.5 nM | 6/6 | KSEQSVLNESRNKNSVA | GASTRES | QQYSRLPLS |
| 940 pM | 6/6 | KLSQSMLYESRNKNSVA | NASTREE | GQYHRLPLT |
| 3.8 nM | 6/6 | KLEMSWLYESRNKNSVA | NASQRES | QQYHRLPLS |
| 2.7 µM | 5/6 | KWSQSVRYEDFNKNSVA | WVSTRES | QQYHRLPLS |
| no signal | 0/6 | KLSQSVLYESRNKYSVA | WASTRES | QQYHRLVLS |
| 1.9 nM | 6/6 | KIYQAMHTLSQHKDNVA | DVNERGS | QQYFRLPLS |
| 1.9 nM | 6/6 | MISQMFEGLSTSKNPVA | QASTREE | QQYHRLPLS |
| no signal | 0/6 | KSSQSSLTESRNKNSVA | WASLRES | QQYHRLPLS |
| 1.9 nM | 6/6 | KLSQSDLYESRNKNSVA | NGSTRES | QQYHRLPLS |
| 70 nM | 4/6 | KSSQSVLYEDRNKNSVA | WASTRFS | QQYHRLPLG |
| 690 pM | 6/6 | KFSDSVLLESRVKNSVA | NASTRES | QQYHRLPLS |
| 470 nM | 3/6 | MFDQQTMNENDKNNSVA | EENHLYN | QQYAQLPLI |
| 1.8 nM | 6/6 | KVSQSKLYESRQKNSVA | HASQREL | QQYHRLPLS |
| 1.6 nM | 6/6 | KQSQSVLYESGNKNSVA | DASTRES | QQYHRLPLS |
| 740 pM | 6/6 | KFSQSVLYESRTENSVA | NASTRES | QQYHRLPLS |
| no signal | 0/6 | KLSFLTEMEHVNRNSVA | ELVTRMS | QQYNRLPLS |
| 41 nM | 5/6 | KMTQSVLEISRNKNSVA | WASTRES | QQYHQLPLS |
| 3.2 nM | 5/6 | KQSQEVLPESRNKNSVA | DASTRES | QQYHRLPLS |
| 13 nM | 6/6 | QLYELMVELSGKTHSVA | DNSTRGE | QQYFRLPLE |
| 770 pM | 6/6 | KVYQSVLYESRNKNSVA | NASTRES | QQYHRLPLS |

Excerpt, the final 9 entries:

CDR-L1	CDR-L2	CDR-L3	Kd (apparent)	detected
MFDQQTMNENDKNNSVA	EENHLYN	QQYAQLPLI	470 nM	3/6
KVSQSKLYESRQKNSVA	HASQREL	QQYHRLPLS	1.8 nM	6/6
KQSQSVLYESGNKNSVA	DASTRES	QQYHRLPLS	1.6 nM	6/6
KFSQSVLYESRTENSVA	NASTRES	QQYHRLPLS	740 pM	6/6
KLSFLTEMEHVNRNSVA	ELVTRMS	QQYNRLPLS	no signal	0/6
KMTQSVLEISRNKNSVA	WASTRES	QQYHQLPLS	41 nM	5/6
KQSQEVLPESRNKNSVA	DASTRES	QQYHRLPLS	3.2 nM	5/6
QLYELMVELSGKTHSVA	DNSTRGE	QQYFRLPLE	13 nM	6/6
KVYQSVLYESRNKNSVA	NASTRES	QQYHRLPLS	770 pM	6/6

Values reported by Li et al. 2023, doi:10.1038/s41467-023-39022-2 (FLAb copy).